# Earlier results as cited in patent publication EP3357492B1, “MULTILAYER TABLET FOR ADMINISTRATION OF MAGNESIUM” (S.I.I.T. S.r.l.-Servizio Internazionale Imballaggi …, priority 2017, dated 2018).
# Settings: in water
substance,measurement,value
Gluconate,Solubility (g/100 g water),19 g/100 g water
